For one substance, Kd, koff and kon results are on record in PMC5717261.

Amino acid sequences for entries named in this document (tags omitted). Chains listed by the source or under a name are the forms on record and can include a tag or linker. Residues count along the entry.
UniProt P13497, other isoform, or with tags, fused parts or gaps: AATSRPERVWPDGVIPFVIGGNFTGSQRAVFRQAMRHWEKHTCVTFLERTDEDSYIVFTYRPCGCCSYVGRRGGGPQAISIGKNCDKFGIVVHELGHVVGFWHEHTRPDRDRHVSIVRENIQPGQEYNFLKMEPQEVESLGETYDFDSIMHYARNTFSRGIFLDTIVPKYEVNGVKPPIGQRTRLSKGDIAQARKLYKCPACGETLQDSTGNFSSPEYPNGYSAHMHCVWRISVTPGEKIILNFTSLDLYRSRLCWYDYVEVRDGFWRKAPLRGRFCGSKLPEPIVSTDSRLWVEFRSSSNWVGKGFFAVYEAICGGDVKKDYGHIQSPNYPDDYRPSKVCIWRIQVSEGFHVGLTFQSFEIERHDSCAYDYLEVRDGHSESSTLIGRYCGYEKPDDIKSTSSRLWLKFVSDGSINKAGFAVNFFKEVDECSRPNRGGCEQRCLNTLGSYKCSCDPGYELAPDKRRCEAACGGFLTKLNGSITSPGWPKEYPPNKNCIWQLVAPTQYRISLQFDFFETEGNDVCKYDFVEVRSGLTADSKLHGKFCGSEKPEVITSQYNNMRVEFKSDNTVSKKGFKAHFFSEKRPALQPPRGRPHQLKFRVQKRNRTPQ
UniProt O43897, 148-1013: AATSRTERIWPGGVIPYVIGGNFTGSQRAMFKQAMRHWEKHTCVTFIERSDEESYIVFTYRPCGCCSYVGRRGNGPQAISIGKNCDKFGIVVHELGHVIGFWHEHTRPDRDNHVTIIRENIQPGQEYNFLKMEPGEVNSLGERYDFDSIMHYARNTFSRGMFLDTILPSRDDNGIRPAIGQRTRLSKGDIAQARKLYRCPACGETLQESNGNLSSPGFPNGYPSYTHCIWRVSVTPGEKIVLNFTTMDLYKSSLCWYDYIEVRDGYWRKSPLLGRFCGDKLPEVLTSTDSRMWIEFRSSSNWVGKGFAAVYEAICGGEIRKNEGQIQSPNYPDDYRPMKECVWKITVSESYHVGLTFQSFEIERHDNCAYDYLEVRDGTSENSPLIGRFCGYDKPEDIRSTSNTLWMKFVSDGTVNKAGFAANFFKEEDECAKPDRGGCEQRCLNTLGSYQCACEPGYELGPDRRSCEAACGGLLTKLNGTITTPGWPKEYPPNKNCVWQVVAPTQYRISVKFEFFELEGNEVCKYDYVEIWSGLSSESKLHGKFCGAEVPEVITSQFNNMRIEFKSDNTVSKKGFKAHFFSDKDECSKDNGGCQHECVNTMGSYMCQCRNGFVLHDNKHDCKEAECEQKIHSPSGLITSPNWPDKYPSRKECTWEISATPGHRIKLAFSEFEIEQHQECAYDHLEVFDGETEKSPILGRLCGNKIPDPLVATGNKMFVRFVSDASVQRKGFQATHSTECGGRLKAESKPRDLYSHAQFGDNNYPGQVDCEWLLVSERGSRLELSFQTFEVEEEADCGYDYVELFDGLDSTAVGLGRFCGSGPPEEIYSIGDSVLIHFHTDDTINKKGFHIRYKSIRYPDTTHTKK

Experiment [1] has as its target Recombinant human bone morphogenetic protein-1 (BMP-1) with a C-terminal FLAG tag (human) (UniProt P13497). In words: SPR; BIAcore 3000, 25 °C; BMP-1, mTLL-1 or MASP-2 immobilised by amine coupling on CM5; C1q or MBL injected (60 µl, 20 µl/min) at several concentrations in 50 mM triethanolamine-HCl, 145 mM NaCl, 2 mM CaCl2, 0.005% surfactant P20, pH 7.4; global fit to a 1:1 Langmuir model; apparent KD from kd/ka.

Experiment [2] addresses Recombinant human mammalian tolloid-like-1 (mTLL-1) with a C-terminal 6x-His tag (human) (UniProt O43897). The experiment is described as above.

By koff is commonly meant the rate constant with which the complex falls apart. The term kon denotes a measure of how fast the partners come together.

Regarding “C1q (from UniProt P02745 23-245; P02746 28-253; P02747 29-245) (complex)”, in experiment [1], the Kd was 0.48 nM, the koff is 0.00021 s⁻¹ and the kon worked out at 440000 M⁻¹ s⁻¹. Besides, in experiment [2], the Kd came to 0.89 nM, the koff came to 0.0003 s⁻¹ and the kon came out at 360000 M⁻¹ s⁻¹.
